# Data: ChEMBL document CHEMBL1127486, “Design of cyclic deltorphins and dermenkephalins with a disulfide bridge leads to analogues with high selectivity for delta-opioid receptors” (J Med Chem, 1994)
# Sequences of proteins named here, by UniProt entry; tags and fusion partners are left off.
# UniProt P32300, whole entry: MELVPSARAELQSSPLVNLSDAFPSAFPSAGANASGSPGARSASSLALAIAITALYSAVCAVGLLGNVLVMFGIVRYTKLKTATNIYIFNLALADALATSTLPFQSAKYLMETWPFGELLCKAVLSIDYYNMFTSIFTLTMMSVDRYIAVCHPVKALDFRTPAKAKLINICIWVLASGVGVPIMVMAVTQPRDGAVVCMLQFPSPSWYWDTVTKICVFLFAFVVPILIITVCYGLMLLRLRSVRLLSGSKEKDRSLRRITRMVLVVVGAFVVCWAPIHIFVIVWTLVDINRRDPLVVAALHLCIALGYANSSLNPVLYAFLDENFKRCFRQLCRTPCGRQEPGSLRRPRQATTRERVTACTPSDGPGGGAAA
# Molecular target: Delta-type opioid receptor (Mus musculus, UniProt P32300)
# Experiment: In vitro inhibition of electrically induced smooth muscle contractions of mouse vas deferens
# Type: functional, tissue-based
row,Structure (SMILES),IC50 [pM]
1,CC(C)[C@H](NC(=O)[C@H](CC(=O)O)NC(=O)[C@H](Cc1ccccc1)NC(=O)[C@@H](C)NC(=O)[C@@H](N)Cc1ccc(O)cc1)C(=O)N[C@H](C(=O)NCC(N)=O)C(C)C (stereo in doubt; form 1) [DELTORPHIN C],360
2,CC(C)[C@H](NC(=O)[C@H](CC(=O)O)NC(=O)[C@H](Cc1ccccc1)NC(=O)[C@@H](C)NC(=O)[C@@H](N)Cc1ccc(O)cc1)C(=O)N[C@H](C(=O)NCC(N)=O)C(C)C (stereo in doubt; form 2) [DELTORPHIN C],670
